Data reported in publication PMC4148842, “The Recognition of Collagen and Triple-helical Toolkit Peptides by MMP-13” (The Journal of Biological Chemistry, 2014).

Key:
[1] = target: Fibrous bovine type I collagen (bovine) (UniProt P02453); experiment: ELISA; SPBA, increasing concentrations of MMP-13 or MMP-13(E204A) on wells coated with fibrillar or monomeric type I collagen (10 μg/ml); KD from fitted curves (Fig. 3)
[2] = target: Monomeric collagen (type I) (UniProt P02453); experiment: as above

- Kd [1]: 33 nM
- Kd [2]: 118 nM
Substance: MMP-13 (from UniProt P45452 104-471) (enzyme)
